The experiment relates to LNCaP. Nature of the experiment: Cytotoxicity against human LNCAP cells expressing CB2 receptor assessed as decrease in cell viability after 72 hrs by neutral red uptake and accumulation assay. In kind it is functional, cell-based.

Molecules are shown by their SMILES.

The values below come from ChEMBL document CHEMBL3421611, “New quinolone- and 1,8-naphthyridine-3-carboxamides as selective CB2 receptor agonists with anticancer and immuno-modulatory activity” (Eur J Med Chem, 2015).

Consider `CCCCCn1c(=O)c(C(=O)NC2CCC(C)CC2)cc2ccccc21` (configuration not stated), for which the Activity entry was “Dose-dependent effect”. On to `CC1CCC(NC(=O)c2c(O)c3cccnc3n(Cc3ccc(F)cc3)c2=O)CC1` (configuration not stated), for which the Activity result was “Dose-dependent effect”.
